From patent US12398123B2, “Chemical inhibition of the E3 ligase subunit FBXO7 confers neuroprotection and anti-inflammatory activity by stabilizing mitochondria” (University of Pittsburgh—Of the Commonwealth System of …, priority 2017, dated 2025)

Tests used:
[1] = target: T1, interaction between Fbxo7 and Pink1 (Homo sapiens, UniProt Q9Y3I1); experiment: in vitro binding assay: TnT synthesized Pink1 pulled down with drug bound Fbxo7 beads; conditions: increasing amounts of compound; immunoblot of pull-down
T1 sequence (Q9Y3I1 1-522): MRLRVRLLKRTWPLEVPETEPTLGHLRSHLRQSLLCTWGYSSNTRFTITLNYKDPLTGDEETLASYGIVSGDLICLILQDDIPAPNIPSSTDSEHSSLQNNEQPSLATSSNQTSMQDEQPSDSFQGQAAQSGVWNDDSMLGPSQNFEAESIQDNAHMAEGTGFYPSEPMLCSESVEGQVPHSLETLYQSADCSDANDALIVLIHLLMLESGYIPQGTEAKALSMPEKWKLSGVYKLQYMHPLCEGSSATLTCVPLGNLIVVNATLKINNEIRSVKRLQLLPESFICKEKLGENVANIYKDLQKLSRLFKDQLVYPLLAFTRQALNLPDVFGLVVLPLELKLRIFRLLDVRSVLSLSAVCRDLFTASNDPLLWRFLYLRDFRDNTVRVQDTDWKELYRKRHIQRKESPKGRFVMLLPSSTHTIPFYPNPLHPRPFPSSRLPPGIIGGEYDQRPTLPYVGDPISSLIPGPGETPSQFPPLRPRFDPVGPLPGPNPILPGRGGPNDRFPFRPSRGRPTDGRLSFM

Pink1 mRNA = experiment: steady-state Pink1 mRNA by quantitative real-time PCR in H9C2 cells; type: cell-based, rat; conditions: 16 h, normalized to GAPDH
[2] = system: primary human fibroblasts; conditions: 400 μM MPP+ for 16 h
Pink1 = Pink1 protein levels in BEAS-2B cells by immunoblotting; conditions: indicated concentrations, 16 h
Fbxo7 mRNA = experiment: steady-state Fbxo7 mRNA by quantitative real-time PCR in H9C2 cells; type: cell-based, rat; conditions: 16 h, normalized to GAPDH
H9C2 cells = experiment: tBHP-induced mitochondrial injury in H9C2 cells, MitoTracker Red flow cytometry; conditions: 100 ng/ml 16 h, tBHP 100 μM 45 min

O=C(CCCn1c(SCC(=O)NCC2CCCO2)nc2ccccc2c1=O)NCc1ccccc1 (centres unmarked) [BC1464]
interaction between Fbxo7 and Pink1 [1]: efficiently decreased the interaction between Fbxo7 and Pink1 | mRNA levels of Pink1 (Pink1 mRNA): Neither BC1464 nor the control compound, BC1465, affected the mRNA levels | protection against MPP+ (% cell death) [2]: conferred significant protection in all three primary human fibroblast cultures | Pink1 protein levels in cells (Pink1): increased Pink1 protein levels in cells in a dose dependent manner | mRNA levels of Fbxo7 (Fbxo7 mRNA): Neither BC1464 nor the control compound, BC1465, affected the mRNA levels

N#Cc1ccccc1Cn1c(=O)n(CCCC(=O)NCc2ccc3c(c2)OCO3)c(=O)c2ccccc21 [BC1465, reference compound]
mRNA levels of Pink1 (Pink1 mRNA): Neither BC1464 nor the control compound, BC1465, affected the mRNA levels | protection from tBHP-induced mitochondrial injury (H9C2 cells): less effective ability to prevent tBHP-induced mitochondrial injury | mRNA levels of Fbxo7 (Fbxo7 mRNA): Neither BC1464 nor the control compound, BC1465, affected the mRNA levels
